Source: patent publication US10188704B2, “Enhanced melanoma cancer prevention by novel melanotropins” (ARIZONA BOARD OF REGENTS ON BEHALF OF THE UNIVERSITY OF …, priority 2015, dated 2019)

Protein sequences, listed by entry. Tags and fused reporters are not part of them.
UniProt P32245, whole entry: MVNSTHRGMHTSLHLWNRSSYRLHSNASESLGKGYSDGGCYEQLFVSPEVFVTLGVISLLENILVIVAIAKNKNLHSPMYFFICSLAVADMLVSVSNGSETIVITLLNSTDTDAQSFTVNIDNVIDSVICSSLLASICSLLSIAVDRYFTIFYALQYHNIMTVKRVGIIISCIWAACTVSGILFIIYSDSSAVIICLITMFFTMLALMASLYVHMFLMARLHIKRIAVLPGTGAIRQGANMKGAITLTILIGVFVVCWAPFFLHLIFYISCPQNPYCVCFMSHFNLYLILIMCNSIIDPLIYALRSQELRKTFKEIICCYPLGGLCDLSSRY

Molecular target: hMC4R (Homo sapiens, UniProt P32245)
Test: cAMP assay (intracellular cAMP accumulation) at hMC4R
Assay type: cell-based
Set-up: expressed in transfected cells
Conditions: Table 2; cAMP activity; read-out: hMC4R % max effect

Emax: 18%
SMILES: CCCC[C@H](NC(=O)[C@@H](NC(=O)[C@@H](N)Cc1ccc(O)cc1)C(C)C)C(=O)NCC(=O)N[C@@H](Cc1cnc[nH]1)C(=O)N[C@H](Cc1ccc2ccccc2c1)C(=O)N[C@@H](CCCN=C(N)N)C(=O)N[C@H](Cc1c[nH]c2ccccc12)C(=O)N[C@@H](CC(=O)O)C(=O)N[C@@H](CCCN=C(N)N)C(=O)N[C@@H](Cc1ccccc1)C(=O)NCC(N)=O [SEQ ID NO. 11, H-Tyr-Val-Nle-Gly-His-D-Nal(2′)-Arg-D-Trp-Asp-Arg-Phe-Gly-NH2]
